# From patent US7772425B2, “Vitamin D receptor modulators” (Eli Lilly and Company, priority 2002, dated 2010)
# Tested on: KERtr cells (Human skin keratinocyte)
# Experiment: Keratinocyte proliferation assay
# Format: cell-based
# Conditions: read-out: Kera. Prolif. IC50, 72 hr, BrdU incorporation
# Procedure: 6. The keratinocyte proliferation assay is described in the “Assay” section of the Description, infra.
# 5. The Keratinocyte Proliferation Assay
# This Assay is indicative for the treatment of psoriasis. […] Preferred assay results are IC50 values of less than 100 nM.
# (5) The Keratinocyte Proliferation Assay:
# KERtr cells (Human skin keratinocyte transformed with a retrovirus vector, obtained from ATCC) were plated in 96-well flat-bottomed plates (3000 cells/well) in 100 μl keratinocyte serum free medium supplemented with bovine pituitary extract in the absence of EGF (Life Technologies, Rockville, Md.) and incubated at 37° C. for two days. The cells were treated with various concentrations of VDR ligands (ten-fold serial dilution from 10,000 nM to 0.1 nM in triplicate), dissolved in 100 μl keratinocyte serum free medium supplemented with bovine pituitary extract in the absence of EGF and incubated at 37° C. for 72 hr. BrdU (5-bromo-2′-deoxyuridine) incorporation was analyzed as a measure of DNA replication (Cell proliferation ELISA kit, Roche Diagnostics, Indianapolis, Ind.) and absorbance was measured at 405 nm. Potency values (IC50) values were determined as the concentration (nM) of compound that elicited a half-maximal response.
row,SMILES,IC50 [nM]
1,C=C1/C(=C\C=C2/CCC[C@]3(C)[C@@H]([C@H](C)/C=C/[C@@H](O)C4CC4)CC[C@@H]23)C[C@@H](O)C[C@@H]1O,103
2,"CCC(CC)(c1ccc(OCC(O)CO)c(C)c1)c1ccc(OCC(O)C(C)(C)C)c(C)c1 (centres unmarked) [BB, 3-(4-{1-Ethyl-1-[4-(2-hydroxy-3,3-dimethyl-butoxy)-3-methyl-phenyl]-propyl}-2-methyl-phenoxy)-propane-1,2-diol, reference compound]",10
